Here are results for two compounds from patent US8791116B2, “Myosin light chain kinase inhibitor compounds, compositions and related methods of use” (Northwestern University, priority 2006, dated 2014).

Protein sequences, listed by entry. Tags and fused reporters are not part of them. Residues count along the entry.
UniProt P53355, 1-285 limits assumed: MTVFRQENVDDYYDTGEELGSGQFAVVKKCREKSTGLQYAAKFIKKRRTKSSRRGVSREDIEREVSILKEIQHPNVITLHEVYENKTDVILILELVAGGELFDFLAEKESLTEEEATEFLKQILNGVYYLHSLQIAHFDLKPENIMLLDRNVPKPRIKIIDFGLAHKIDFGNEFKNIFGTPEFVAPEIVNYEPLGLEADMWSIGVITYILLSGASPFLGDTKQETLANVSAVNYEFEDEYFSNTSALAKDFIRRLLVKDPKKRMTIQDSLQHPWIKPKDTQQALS
UniProt Q15746, whole entry: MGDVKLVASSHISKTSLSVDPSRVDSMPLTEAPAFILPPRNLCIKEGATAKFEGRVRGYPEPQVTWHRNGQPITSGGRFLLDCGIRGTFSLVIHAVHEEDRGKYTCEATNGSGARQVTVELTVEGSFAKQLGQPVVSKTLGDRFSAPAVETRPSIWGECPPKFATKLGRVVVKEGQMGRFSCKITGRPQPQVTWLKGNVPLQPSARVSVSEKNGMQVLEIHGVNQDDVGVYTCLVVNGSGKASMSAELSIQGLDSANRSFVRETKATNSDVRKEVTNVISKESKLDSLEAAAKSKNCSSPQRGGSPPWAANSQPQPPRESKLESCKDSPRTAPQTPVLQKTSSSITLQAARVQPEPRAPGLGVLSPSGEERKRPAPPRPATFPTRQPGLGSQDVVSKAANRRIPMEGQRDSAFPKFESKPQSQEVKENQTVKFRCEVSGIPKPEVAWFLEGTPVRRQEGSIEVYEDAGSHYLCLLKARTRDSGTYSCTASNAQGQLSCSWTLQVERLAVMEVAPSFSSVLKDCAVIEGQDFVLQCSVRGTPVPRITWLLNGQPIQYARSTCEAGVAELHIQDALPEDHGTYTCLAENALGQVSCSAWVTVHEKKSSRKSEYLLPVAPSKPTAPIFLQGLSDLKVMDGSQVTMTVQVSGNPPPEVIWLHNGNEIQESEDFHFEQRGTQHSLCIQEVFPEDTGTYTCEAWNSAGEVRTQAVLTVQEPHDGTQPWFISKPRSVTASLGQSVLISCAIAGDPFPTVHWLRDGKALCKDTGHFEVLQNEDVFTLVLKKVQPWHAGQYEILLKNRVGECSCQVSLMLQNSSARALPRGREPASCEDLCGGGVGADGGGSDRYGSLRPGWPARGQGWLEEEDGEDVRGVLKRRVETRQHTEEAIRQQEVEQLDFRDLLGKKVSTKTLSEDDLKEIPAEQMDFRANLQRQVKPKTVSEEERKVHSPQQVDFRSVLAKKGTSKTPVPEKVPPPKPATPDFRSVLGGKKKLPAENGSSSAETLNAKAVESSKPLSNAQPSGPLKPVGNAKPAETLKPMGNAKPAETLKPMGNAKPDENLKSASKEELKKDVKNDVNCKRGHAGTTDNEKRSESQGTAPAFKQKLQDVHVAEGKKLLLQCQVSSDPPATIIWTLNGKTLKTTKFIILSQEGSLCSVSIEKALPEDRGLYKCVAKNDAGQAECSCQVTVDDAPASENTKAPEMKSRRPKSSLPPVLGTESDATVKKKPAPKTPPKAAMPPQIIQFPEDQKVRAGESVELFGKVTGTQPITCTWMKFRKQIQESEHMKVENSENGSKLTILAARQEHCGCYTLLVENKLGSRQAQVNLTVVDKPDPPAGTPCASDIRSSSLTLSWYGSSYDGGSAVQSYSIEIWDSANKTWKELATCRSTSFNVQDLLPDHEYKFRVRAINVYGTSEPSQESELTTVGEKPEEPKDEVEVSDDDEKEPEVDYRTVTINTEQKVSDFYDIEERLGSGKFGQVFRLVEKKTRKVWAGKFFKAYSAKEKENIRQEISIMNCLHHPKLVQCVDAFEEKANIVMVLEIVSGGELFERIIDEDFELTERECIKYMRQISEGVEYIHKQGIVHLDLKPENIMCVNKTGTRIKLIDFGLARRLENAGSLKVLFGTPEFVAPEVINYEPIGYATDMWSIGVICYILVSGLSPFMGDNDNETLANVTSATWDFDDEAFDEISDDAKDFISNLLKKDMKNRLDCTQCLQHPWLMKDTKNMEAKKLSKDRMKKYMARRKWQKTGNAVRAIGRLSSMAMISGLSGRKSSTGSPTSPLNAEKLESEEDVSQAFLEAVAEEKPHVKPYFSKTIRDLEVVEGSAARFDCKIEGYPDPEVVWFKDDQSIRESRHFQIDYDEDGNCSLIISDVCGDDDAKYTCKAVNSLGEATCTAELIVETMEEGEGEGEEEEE

Where two headings read alike, the source gives them in different places.

Test [1] concerns the target death-associated protein kinase (DAPK) (Homo sapiens, UniProt P53355). Put plainly: Kinase inhibitory activity against death-associated protein kinase. It counts as biochemical. The conditions noted are these: read-out: DAPK (μM), in vitro inhibition of kinases. The method, then: (§1) MLCK inhibitory activity screens were done by incubation with 20 μM peptide substrate ([…]), 200 μM ATP and [^32P]-ATP (2.5 μCi per reaction) in assay buffer (50 mM HEPES, pH 7.5 with KOH, 5 mM MgCl2, 0.15 M KCl, 0.015 M NaCl, 1 mM DTT) with 0.1 mM CaCl2 and 1 μM calmodulin (New England Biolabs, MA). [T. J. Lukas, S. Mirzoeva, U. Slomczynska and D. M. Watterson, J. Med. Chem. 42 (1999) 910-9.] Reactions were initiated by addition of MLCK protein and incubated for 20 min at 25° C. Reactions were spotted onto P-81 paper (Whatman, Clifton, N.J.), washed with 75 mM H3PO4 and 95% EtOH, and quantified by scintillation counting in EcoScintO (National Diagnostics, Atlanta, Ga.). Testing of compounds for kinase inhibitory activity against the structurally and functionally related kinases death-associated protein kinase (DAPK) and the signal transduction pathway relevant kinases protein kinase A (PKA) and protein kinase C (PKC) was performed as described by using the corresponding peptide substrates and assay conditions. [[…]. Guo, […]. Bourguignon, […]. Van Eldik and D. M. Watterson, J. Med. Chem 45 (2002) 563-6; A. M. Schumacher, […] and D. M. Watterson, Biochemistry 43 (2004) 8116-24; […]. Schumacher and D. M. Watterson, Pharmacol Ther 93 (2002) 217-24; […]. Schumacher, C. Weiss, M. Egli and D. M. Watterson, J. Biol. Chem. 276 (2001) 38956-65; D. M. Watterson, S. Mirzoeva, L. Guo, […]. […]

The target of test [2] is T1, MLCK (Homo sapiens, UniProt Q15746). Put plainly: MLCK inhibitory activity screen (32P-ATP peptide substrate phosphorylation). Format: biochemical. The method, then: as §1
For test [3], the target named is T1, MLCK. The conditions noted are these: read-out: MLCK (μM), in vitro inhibition of kinases; marked ** Previously reported; cited from earlier work.
Another test deals with protein kinase C (PKC). Put plainly: Kinase inhibitory activity against protein kinase C. The conditions noted are these: read-out: PKC (μM), in vitro inhibition of kinases. Here is the method:
MLCK inhibitory activity screens were done by incubation with 20 μM peptide substrate (KKRPQRATSNVFAM-NH2), 200 μM ATP and [^32P]-ATP (2.5 μCi per reaction) in assay buffer (50 mM HEPES, pH 7.5 with KOH, 5 mM MgCl2, 0.15 M KCl, 0.015 M NaCl, 1 mM DTT) with 0.1 mM CaCl2 and 1 μM calmodulin (New England Biolabs, MA). [T. J. Lukas, S. Mirzoeva, U. Slomczynska and D. M. Watterson, J. Med. Chem. 42 (1999) 910-9.] Reactions were initiated by addition of MLCK protein and incubated for 20 min at 25° C. Reactions were spotted onto P-81 paper (Whatman, Clifton, N.J.), washed with 75 mM H3PO4 and 95% EtOH, and quantified by scintillation counting in EcoScintO (National Diagnostics, Atlanta, Ga.). Testing of compounds for kinase inhibitory activity against the structurally and functionally related kinases death-associated protein kinase (DAPK) and the signal transduction pathway relevant kinases protein kinase A (PKA) and protein kinase C (PKC) was performed as described by using the corresponding peptide substrates and assay conditions. […]

A further test addresses protein kinase A (PKA) (Homo sapiens, UniProt P17612). The test can be described thus: Kinase inhibitory activity against protein kinase A. The conditions noted are these: read-out: PKA (μM), in vitro inhibition of kinases. Format: biochemical. Here is the method:
as §1

Turning to `CN1CCCC1CCNC(=O)CCCCCCCn1nc(-c2ccccc2)ccc1=N` (stereo not shown), the IC50 was more than 100 µM in test [1] and more than 100 µM at MLCK [2] (read-out: MLCK (μM), in vitro inhibition of kinases, 20 μM peptide substrate, 200 μM ATP, 20 min at 25° C.). Further, on MLCK [2] (in vitro, versus compound 6), the “MLCK inhibitory activity relative to parent compound (in words)” value is listed as “diminished the inhibitor activity”.

On to `N=c1ccc(Cl)nn1CCCCCCCCCCC(=O)Nc1ccc(-c2ccccc2)nn1`, for which the IC50 at MLCK [3] was 5 µM; at protein kinase C (PKC), more than 100 µM; in test [1], more than 100 µM; on protein kinase A (PKA), more than 100 µM.
